Legend:
[1] = Ratio of Ki for human delta opioid receptor over Ki for rat mu opioid receptor
[2] = target: Delta-type opioid receptor (Homo sapiens) (UniProt P41143); assay: Agonist activity at human delta opioid receptor by [35S]GTP-gamma-S binding assay; format: functional
Outline: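 Membranes (10 µg) from HN9.10 cells transfected with rMOR or hDOR, incubated 90 min at 30 °C with test drug 1×10^-12 to 1×10^-5 M in duplicate. Buffer: 50 mM HEPES pH 7.4, 30 µM GDP, 5 mM MgCl2, 100 mM NaCl, 0.1 nM [35S]GTPγS. Filtration, then scintillation counting. Nonspecific binding defined with 10 µM GTPγS. EC50 from nonlinear regression, two experiments; Emax as net/basal ×100.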

The chains behind the UniProt entries cited, without tags or fusion partners.
UniProt P41143, whole entry, looked up: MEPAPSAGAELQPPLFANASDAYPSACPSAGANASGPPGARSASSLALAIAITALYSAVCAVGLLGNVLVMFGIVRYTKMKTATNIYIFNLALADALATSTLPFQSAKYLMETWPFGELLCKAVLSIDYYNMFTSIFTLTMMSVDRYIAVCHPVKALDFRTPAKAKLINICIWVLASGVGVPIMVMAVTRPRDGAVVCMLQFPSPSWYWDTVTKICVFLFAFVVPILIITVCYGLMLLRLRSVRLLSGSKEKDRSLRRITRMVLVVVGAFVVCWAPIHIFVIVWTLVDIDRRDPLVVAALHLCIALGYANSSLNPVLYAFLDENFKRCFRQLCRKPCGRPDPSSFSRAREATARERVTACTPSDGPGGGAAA

## C[C@@H](NC(=O)[C@@H](N)Cc1ccc(O)cc1)C(=O)NCC(=O)N[C@@H](Cc1ccccc1)C(=O)NNC(=O)[C@H](Cc1ccccc1)NC(=O)CNC(=O)[C@@H](C)NC(=O)[C@@H](N)Cc1ccc(O)cc1
[1]
  Ratio Ki: 0.54
[2]
  logEC50: -9

From ChEMBL document CHEMBL1143135, “A structure-activity relationship study and combinatorial synthetic approach of C-terminal modified bifunctional peptides that are delta/mu opioid receptor agonists and neurokinin 1 receptor antagonists” (J Med Chem, 2008)
